For the experiment, the target named is Intermediate conductance calcium-activated potassium channel protein 4 (Homo sapiens) (UniProt O15554). The experiment in a line: Inhibition of IK (unknown origin).

By IC50 is commonly meant the midpoint of a concentration-inhibition curve.

Molecules are shown by their SMILES.

Turning to `NC(=O)C(c1ccccc1)(c1ccc(F)cc1)c1ccc(F)cc1` [SENICAPOC], the IC50 is above 1 µM.

(Values after BindingDB's records for doi:10.1021/jm3011433 (Pfizer, 2013).)
